# Reference: patent US20110224084A1, “Agricultural Compositions” (priority 2008, published 2011)
# Experiment: Solubility tests of tebuconazole in different solvents
# Assay type: physicochemical
# Settings: solubility of tebuconazole in the named solvent; percent by weight of the biocide in 100 g of the solvent
substance,measurement,value
Benzoic acid mono propylene glycol esters [Example 1],Solubility,30 % b.w.
